# Assay results published in patent US11266647B2, “Method for increasing cell proliferation in pancreatic beta cells, treatment method, and composition” (ICAHN SCHOOL OF MEDICINE AT MOUNT SINAI, priority 2016, dated 2022).
# System: human beta cells
# Assay: Ki67 immunolabeling in human islets with adenoviral silencing or overexpression plus drug
# Format: cell-based
# Conditions: Ad.shDYRK1A plus TGFβ inhibitor
# Protocol: The immunoblots are representative of separate experiments in human islets from three different donors. […] Ad.shLacZ indicates a sh-adenovirus for the Ad.shDYRK1A.
# Unless otherwise described, all transductions were performed using 150 moi for one hour, and studies performed 72 hours later. […] Adenoviruses encoding human SMAD6 or SMAD7 were prepared as described using cDNAs encoding SMAD6 and SMAD7 obtained from Harvard PlasmID Database.
# Primary antisera were: BrdU (ab6326, Abcam), Ki67 (RM-9106-sl, Thermo Scientific, and MIB1, DAKO), p-Histone-3 (06-570, Millipore), insulin (A0564, DAKO), p-yH2AX (MA1-2022, Thermo Scientific), NKX6.1 (F55A10-c, University of Iowa), PDX1 (07-696, Millipore), MAFA (Ab26405, Abcam), Glucagon (2760s, Cell Signaling), Somatostatin (Sc-20999, Santa Cruz), Pancreatic Polypeptide (A0619, DAKO), and CK19 (Ab52625, Abcam). Species-specific mouse Alexa Fluor 488 (A-11029, Life Technologies), rat Alexa Fluor 594 (A-11007, Life Technologies), rabbit Alexa Fluor 488 (A11037, Life Technologies) or guinea pig Alexa Fluor 488 (A-11073, Life Technologies) secondary antisera were selected as appropriate.
smiles,measurement,value
"c1ccc(-c2n[nH]cc2-c2ccnc3ccccc23)nc1 [LY364947, 4-[3-(2-Pyridinyl)-1H-pyrazol-4-yl]-quinoline]",proliferation with adenoviral silencing of DYRK1A,markedly accentuates proliferation
